Reference: patent publication US8318808B2, “Zn2+chelating motif-tethered short-chain fatty acids as a novel class of histone deacetylase inhibitors” (The Ohio State University Research Foundation, priority 2007, dated 2012)

System: primary CLL cells
Details: N=6

## CC(C)C(C(=O)Nc1ccc(C(=O)NO)cc1)c1ccccc1 (stereo not shown) [compound 42, N-Hydroxy-4-(3-methyl-2-phenyl-butyrylamino)-benzamide]
  concentration at which significant cytotoxicity was observed: ≥ 1000 nM
